# Patent US20260152497A1, “MIDAZO[4,5-c]QUINOLINE-4-AMINE COMPOUNDS AND CONJUGATES THEREOF, THEIR PREPARATION, AND THEIR [sequence] APPLICATIONS” (SANOFI, priority 2021, published 2026)
# pEC50: −log10 of the molar value.
# Molecular target: T1, human TLR7 (Homo sapiens, UniProt Q9NYK1)
# T1 construct: host or cells: HEK293 (HEK-Blue hTLR7); engineered variants additionally transfected with tumor antigen genes
# T1 sequence (Q9NYK1 27-1049): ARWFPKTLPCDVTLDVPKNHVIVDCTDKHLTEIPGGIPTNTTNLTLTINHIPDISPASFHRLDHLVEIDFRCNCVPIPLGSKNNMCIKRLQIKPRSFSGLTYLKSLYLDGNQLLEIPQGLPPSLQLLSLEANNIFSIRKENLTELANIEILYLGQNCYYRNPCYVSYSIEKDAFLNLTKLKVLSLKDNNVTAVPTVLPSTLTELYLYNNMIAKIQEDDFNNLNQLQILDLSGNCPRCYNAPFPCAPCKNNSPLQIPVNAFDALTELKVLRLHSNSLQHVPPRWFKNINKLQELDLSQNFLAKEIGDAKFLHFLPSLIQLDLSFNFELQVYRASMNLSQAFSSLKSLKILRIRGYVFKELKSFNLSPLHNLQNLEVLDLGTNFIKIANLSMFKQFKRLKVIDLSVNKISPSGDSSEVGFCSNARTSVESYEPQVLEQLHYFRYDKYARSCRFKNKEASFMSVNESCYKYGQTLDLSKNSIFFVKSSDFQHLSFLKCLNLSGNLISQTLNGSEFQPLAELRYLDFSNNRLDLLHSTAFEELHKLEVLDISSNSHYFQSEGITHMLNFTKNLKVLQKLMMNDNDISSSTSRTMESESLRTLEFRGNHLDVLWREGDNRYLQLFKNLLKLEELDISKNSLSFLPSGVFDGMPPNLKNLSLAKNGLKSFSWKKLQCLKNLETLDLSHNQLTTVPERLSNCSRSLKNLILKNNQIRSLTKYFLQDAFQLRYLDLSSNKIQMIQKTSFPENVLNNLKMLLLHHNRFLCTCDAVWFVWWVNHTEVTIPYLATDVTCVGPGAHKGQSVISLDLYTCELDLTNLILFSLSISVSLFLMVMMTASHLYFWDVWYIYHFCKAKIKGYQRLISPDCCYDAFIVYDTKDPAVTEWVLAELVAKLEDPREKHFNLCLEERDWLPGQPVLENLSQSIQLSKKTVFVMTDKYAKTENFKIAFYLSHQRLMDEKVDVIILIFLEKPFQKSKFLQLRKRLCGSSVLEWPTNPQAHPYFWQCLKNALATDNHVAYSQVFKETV
# Experiment: TLR7 pathway activation, parental HEK-Blue hTLR7 reporter cells (SEAP)
# Assay type: cell-based
# Settings: Table 1a, 96 hours, read-out: EC50 HEKBlue-hTLR7
# Experimental: The below tests involving measuring the in vitro activity of some compounds of the disclosure on human TLR7 pathway were carried out using parental HEK-Blue™ hTLR7 cells and engineered tumor antigen-expressing HEK-Blue™ hTLR7 cells respectively as reporter cells.
# HEK-Blue™ hTLR7 Cells (#hkb-htlr7) and HEK-Blue™ hTLR8 Cells (#hkb-htlr8) cells from InvivoGen and the engineered tumor antigen expressing cells were used according to the manufacturer's instructions. The HEK-Blue™ hTLR7 and HEK-Blue™ hTLR8 cells were obtained by co-transfection of the hTLR7 or hTLR8 gene in HEK293 cells and an optimized Secreted Embryonic Alkaline Phosphatase (SEAP) reporter gene which is placed under the control of the IFN-β minimal promoter fused to five NF-κB and AP-1-binding sites. The human tumor antigen expressing HEK-Blue™ hTLR7 and hTLR8 cells were obtained by transfection of the tumor antigen genes in the parental cells followed by a polyclonal selection to enrich in cells overexpressing the tumor antigen. Stimulation with a TLR7/8 ligand activates NF-kB and AP-1 which induce the production of SLAP. The cells are seeded in 96-well plate at 3.10E4 cells/well and incubated 24 hours at 37C, 5% CO2 before adding the conjugates to be evaluated. The cells are subsequently incubated with 3-fold serial dilutions of each of the compounds (0.01 nM to 1 μM) for 96 hours at 37° C., 5% CO2. Next, 20 μL of the supernatant is harvested and incubated with 200 μL of QUANTI-Blue™ Solution.
row,Substance,pEC50
1,HER2_trastuzumab-PEG4-R848 ADC [Example 4],< 6.00
2,HER2_trastuzumab-PEG8-R848 ADC [Example 10],< 6.00
3,HER2_trastuzumab-PEG24-R848 ADC [Example 22],< 6.00
4,EGFR_cetuximab-PEG4-R848 ADC [Example 5],< 6.00
5,EGFR_cetuximab-PEG8-R848 ADC [Example 11],< 6.00
6,HER2_trastuzumab-PEG12-R848 ADC [Example 16],< 6.00
7,EGFR_cetuximab-PEG12-R848 ADC [Example 17],< 6.00
